Measurements published in article PMC4848466, “Insights into the activation mechanism of class I HDAC complexes by inositol phosphates” (Nature Communications, 2016).

Chains of the proteins cited; added tags and fusions are not shown. Lines headed by an entry give the natural chain unless they say otherwise; changes in a name come on top. Residues count along the entry.
UniProt O15379: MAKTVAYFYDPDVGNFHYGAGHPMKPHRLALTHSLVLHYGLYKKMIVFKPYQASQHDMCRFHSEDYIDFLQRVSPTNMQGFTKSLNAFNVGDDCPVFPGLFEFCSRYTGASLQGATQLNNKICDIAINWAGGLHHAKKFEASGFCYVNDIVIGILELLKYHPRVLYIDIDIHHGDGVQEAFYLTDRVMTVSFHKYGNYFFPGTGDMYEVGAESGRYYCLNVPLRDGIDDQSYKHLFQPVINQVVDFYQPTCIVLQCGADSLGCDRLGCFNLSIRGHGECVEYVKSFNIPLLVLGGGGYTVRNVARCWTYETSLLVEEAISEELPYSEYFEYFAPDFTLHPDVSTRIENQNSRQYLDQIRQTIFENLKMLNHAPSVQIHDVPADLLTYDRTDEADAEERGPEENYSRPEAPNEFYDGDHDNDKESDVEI
UniProt Q9Y618, 350-480: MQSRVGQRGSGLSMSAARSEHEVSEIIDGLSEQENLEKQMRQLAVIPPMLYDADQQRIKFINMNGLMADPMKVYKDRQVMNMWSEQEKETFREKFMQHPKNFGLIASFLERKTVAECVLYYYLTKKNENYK

Target: HDAC3:SMRT (Homo sapiens, UniProt O15379+Q9Y618)
Test: Fluorescence anisotropy direct binding of 2-FAM-Ins(1,3,4,5,6)P5

## trichostatin A [TSA]
  enhancement of the binding of 2-FAM-Ins(1,3,4,5,6)P5 to the allosteric site by inhibitor: threefold enhancement
